Legend:
Design in all cases: species or system human
CDK16 = assay: Kinobeads competition binding: CDK16; settings: target CDK16
BRAF = assay: Kinobeads competition binding: BRAF; settings: target BRAF
CDK1 = assay: Kinobeads competition binding: CDK1; settings: target CDK1
MAP3K3 = assay: Kinobeads competition binding: MAP3K3; settings: target MAP3K3
CAMK4 = assay: Kinobeads competition binding: CAMK4; settings: target CAMK4;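 also: selectivity score: engagement of this protein divided by summed engagement of all targets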
DDR2 = assay: Kinobeads competition binding: DDR2; settings: target DDR2;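 also: target engagement share of this target among all targets at its Kdapp concentration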
MAP3K2 = assay: Kinobeads competition binding: MAP3K2; settings: target MAP3K2
MAPK7 = assay: Kinobeads competition binding: MAPK7; settings: target MAPK7
IRAK4 = assay: Kinobeads competition binding: IRAK4; settings: target IRAK4
JAK2 = assay: Kinobeads competition binding: JAK2; settings: target JAK2;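 also: target engagement share of this target among all targets at its Kdapp concentration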
NEK1 = assay: Kinobeads competition binding: NEK1; settings: target NEK1
CDK17 = assay: Kinobeads competition binding: CDK17; settings: target CDK17
MARK3 = assay: Kinobeads competition binding: MARK3; settings: target MARK3
PI4KB = assay: Kinobeads competition binding: PI4KB; settings: target PI4KB;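 also: selectivity score: engagement of this protein divided by summed engagement of all targets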
MELK = assay: Kinobeads competition binding: MELK; settings: target MELK;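 also: share of total target engagement due to this protein at one drug concentration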
LCK = assay: Kinobeads competition binding: LCK; settings: target LCK
CLK3 = assay: Kinobeads competition binding: CLK3; settings: target CLK3
MAP3K11 = assay: Kinobeads competition binding: MAP3K11; settings: target MAP3K11
NEK9 = assay: Kinobeads competition binding: NEK9; settings: target NEK9
MAP2K5 = assay: Kinobeads competition binding: MAP2K5; settings: target MAP2K5
MAP2K1 = assay: Kinobeads competition binding: MAP2K1; settings: target MAP2K1
ERBB3 = assay: Kinobeads competition binding: ERBB3; settings: target ERBB3;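 also: selectivity score: engagement of this protein divided by summed engagement of all targets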
MAPK3 = assay: Kinobeads competition binding: MAPK3; settings: target MAPK3
CDC42BPA = assay: Kinobeads competition binding: CDC42BPA; settings: target CDC42BPA;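 also: selectivity score: engagement of this protein divided by summed engagement of all targets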
MAP4K2 = assay: Kinobeads competition binding: MAP4K2; settings: target MAP4K2
LIMK1 = assay: Kinobeads competition binding: LIMK1; settings: target LIMK1
MAP4K3 = assay: Kinobeads competition binding: MAP4K3; settings: target MAP4K3
MAPK9 = assay: Kinobeads competition binding: MAPK9; settings: target MAPK9
CDC42BPB = assay: Kinobeads competition binding: CDC42BPB; settings: target CDC42BPB
PIK3CB = assay: Kinobeads competition binding: PIK3CB; settings: target PIK3CB
IRAK3 = assay: Kinobeads competition binding: IRAK3; settings: target IRAK3
CDC42BPG = assay: Kinobeads competition binding: CDC42BPG; settings: target CDC42BPG
MAP3K12 = assay: Kinobeads competition binding: MAP3K12; settings: target MAP3K12
MAPK11 = assay: Kinobeads competition binding: MAPK11; settings: target MAPK11
JAK1 = assay: Kinobeads competition binding: JAK1; settings: target JAK1;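 also: target engagement share of this target among all targets at its Kdapp concentration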
MAP2K2 = assay: Kinobeads competition binding: MAP2K2; settings: target MAP2K2
PKM = assay: Kinobeads competition binding: PKM; settings: target PKM
CSNK1G1 = assay: Kinobeads competition binding: CSNK1G1; settings: target CSNK1G1;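 also: share of total target engagement due to this protein at one drug concentration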
INSR = assay: Kinobeads competition binding: INSR; settings: target INSR;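 also: share of total target engagement due to this protein at one drug concentration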
BMPR1A = assay: Kinobeads competition binding: BMPR1A; settings: target BMPR1A
PIK3C2B = assay: Kinobeads competition binding: PIK3C2B; settings: target PIK3C2B
MERTK = assay: Kinobeads competition binding: MERTK; settings: target MERTK
MAP4K5 = assay: Kinobeads competition binding: MAP4K5; settings: target MAP4K5
ILK = assay: Kinobeads competition binding: ILK; settings: target ILK
ACVR2B = assay: Kinobeads competition binding: ACVR2B; settings: target ACVR2B

Measured: CATDS

CN(C)C/C=C/C(=O)Nc1cc2c(Nc3ccc(F)c(Cl)c3)ncnc2cc1O[C@H]1CCOC1 [Afatinib]
0: all assays above
